# scFv variants of Ab-14 (light chain) against a SARS-CoV-2 spike peptide

From the AlphaSeq antibody data of Engelhart et al. 2022 (doi:10.1038/s41597-022-01779-4), copy in the FLAb collection.

Target: peptide PDVDLGDISGINAS, taken from heptad repeat 2 (HR2) of SARS-CoV-2 spike.

Ab-14 is the parent antibody, in scFv form: VH, then a 15-residue (Gly4Ser)3 linker, then VL. The heavy chain is unchanged in all variants.
VH: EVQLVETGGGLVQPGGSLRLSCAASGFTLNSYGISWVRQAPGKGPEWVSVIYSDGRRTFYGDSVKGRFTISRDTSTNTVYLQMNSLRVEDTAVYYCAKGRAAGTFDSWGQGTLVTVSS
VL: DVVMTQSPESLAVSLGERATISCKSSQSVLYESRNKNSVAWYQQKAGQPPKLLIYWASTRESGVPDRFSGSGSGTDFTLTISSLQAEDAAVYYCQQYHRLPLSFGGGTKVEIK

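The library (AAYL50) carries one to three amino acid substitutions per variant, with no insertions or deletions. Affinity was read by AlphaSeq, a pooled yeast mating assay with surface-displayed partners. The frequency of each diploid, read from paired DNA barcodes, reflects how well the two displayed proteins bind. A regression on co-assayed BCL2-family reference pairs converts the normalised counts of each replicate to an apparent Kd. Each pool was mated in three replicate cultures.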

Substitutions are numbered in sequence along the VL above, starting at 1 (not Kabat).
Every variant below is changed at S25 of the VL (sequential numbering).
Kd is apparent (estimated from mating counts) and averaged on the log scale over replicates with a signal. Smaller is tighter.
A pair that was not seen in any replicate is written "nd"; this usually means weak binding, but a binder can also be missed.
Empty control strains, which show no peptide, gave a signal in 18% of pairings with library AAYL50; the median was 15 µM and 95% of these signals were weaker than 970 nM. No background was subtracted.

For S25I K36A Q96V, the assay gave 500 pM (3 of 3 replicates).
For S25A W56E R60Q, the assay gave 3.0 nM (3 of 3 replicates).
For S25F S28G L100C, the assay gave 1.0 nM (3 of 3 replicates).
For S25K E32K, the assay gave nd (0 of 3 replicates).
For S25P V29M, the assay gave 79 nM (3 of 3 replicates).
For S25A S58W Y97I, the assay gave 5.1 µM (2 of 3 replicates).
For S25E E61N H98I, the assay gave 660 nM (3 of 3 replicates).
For S25Y N35D, the assay gave 2.2 nM (3 of 3 replicates).
For K24E S25Q Q27A, the assay gave 62 µM (1 of 3 replicates).
For K24L S25P, the assay gave 7.1 µM (3 of 3 replicates).
For S25N T59P L100F, the assay gave 29 µM (2 of 3 replicates).
For S25H S58F L102W, the assay gave 91 µM (1 of 3 replicates).
For S25H Y31F S38W, the assay gave 4.7 µM (1 of 3 replicates).
For S25P L30Q R60D, the assay gave nd (0 of 3 replicates).
For S25Q L30V R99G, the assay gave 3.0 nM (3 of 3 replicates).
For S25E S26I R60I, the assay gave 18 µM (3 of 3 replicates).
For S25H L30Y T59L, the assay gave 29 nM (3 of 3 replicates).
For S25D R99S, the assay gave 4.1 nM (3 of 3 replicates).
For S25H Y31K S33I, the assay gave 91 nM (3 of 3 replicates).
For S25G V29N K36Q, the assay gave 6.5 nM (3 of 3 replicates).
For S25C Y31P, the assay gave 2.5 nM (3 of 3 replicates).
For S25Y S28P V29G, the assay gave 2.3 nM (3 of 3 replicates).
For K24S S25A H98E, the assay gave nd (0 of 3 replicates).
For S25Q N37R S103F, the assay gave 27 nM (3 of 3 replicates).
For S25T A57F, the assay gave 11 µM (3 of 3 replicates).
For S25D S38T R60S, the assay gave nd (0 of 3 replicates).
For S25Y L30G T59H, the assay gave 7.8 nM (3 of 3 replicates).
For S25A R34Y L102T, the assay gave 10 nM (3 of 3 replicates).
For S25D S62T R99G, the assay gave 1.1 µM (3 of 3 replicates).
For S25W Q27W Y97G, the assay gave 530 nM (3 of 3 replicates).
For S25C Q95D Q96D, the assay gave 25 nM (3 of 3 replicates).
For S25E N35K L100I, the assay gave 180 nM (1 of 3 replicates).
For S25D Q27K T59A, the assay gave 56 nM (3 of 3 replicates).
For S25I Y97W H98K, the assay gave 13 µM (3 of 3 replicates).
For S25N R34T K36M, the assay gave 7.9 nM (3 of 3 replicates).
For S25C K36D L100E, the assay gave 1.3 µM (1 of 3 replicates).
For S25F N37Q Y97Q, the assay gave 6.0 nM (3 of 3 replicates).
For S25F R60F L100T, the assay gave 16 µM (1 of 3 replicates).
For S25C, the assay gave 11 nM (3 of 3 replicates).
For S25M E32N V39M, the assay gave 2.0 nM (3 of 3 replicates).
For K24M S25G Q96G, the assay gave 9.1 µM (1 of 3 replicates).
For S25K T59R, the assay gave 1.5 µM (3 of 3 replicates).
For S25C E32D L100Q, the assay gave 42 nM (3 of 3 replicates).
For S25Q V29N L100M, the assay gave 180 nM (3 of 3 replicates).
For S25Q Y31K W56E, the assay gave nd (0 of 3 replicates).
For S25H Q27P, the assay gave 2.5 nM (3 of 3 replicates).
For S25V R34E Q95W, the assay gave nd (0 of 3 replicates).

From the list, the first 6 with no signal in any replicate:

| changes | Kd (apparent) | seen in |
|---|---|---|
| S25K E32K | nd | 0/3 |
| S25P L30Q R60D | nd | 0/3 |
| K24S S25A H98E | nd | 0/3 |
| S25D S38T R60S | nd | 0/3 |
| S25Q Y31K W56E | nd | 0/3 |
| S25V R34E Q95W | nd | 0/3 |